From ChEMBL document CHEMBL3596173, “Structural Requirements for CNS Active Opioid Glycopeptides” (J Med Chem, 2015)

How the values were obtained:
[1] = species on record: Homo sapiens; assay: Selectivity ratio of Ki for human kappa opioid receptor to Ki for human mu opioid receptor
[2] = species on record: Homo sapiens; assay: Selectivity ratio of Ki for human delta opioid receptor to Ki for human mu opioid receptor

C[C@@H](NC(=O)[C@@H](N)Cc1ccc(O)cc1)C(=O)NCC(=O)N(C)[C@@H](Cc1ccccc1)C(=O)NCCO was tested, and the Ratio Ki [1] was 500 and the Ratio Ki [2] was 2000.
